Values quoted from earlier work as cited in article PMC3907177.

Target: STRA6 (Homo sapiens) (UniProt Q9BX79)

Kd: 59 nM
Substance: RBP (from UniProt P02753)
